Values quoted from earlier work, collected in patent publication US12398099B2, “Multi-aziridine compound” (priority 2020, dated 2025).

Settings: background statement on prior-art crosslinkers

pentaerythritol tris[3-(1-aziridinyl)propionate [XAMA-7]
genotoxic profile: unfavourable genotoxic profile
